Values quoted from earlier work as cited in patent US9182414B2, “Methods for identifying a GLP-1 secretagogue” (Arena Pharmaceuticals, Inc., priority 2005, dated 2015).

Target: T1, BRS-3 (Homo sapiens, UniProt P32247)
T1 sequence (P32247 1-399): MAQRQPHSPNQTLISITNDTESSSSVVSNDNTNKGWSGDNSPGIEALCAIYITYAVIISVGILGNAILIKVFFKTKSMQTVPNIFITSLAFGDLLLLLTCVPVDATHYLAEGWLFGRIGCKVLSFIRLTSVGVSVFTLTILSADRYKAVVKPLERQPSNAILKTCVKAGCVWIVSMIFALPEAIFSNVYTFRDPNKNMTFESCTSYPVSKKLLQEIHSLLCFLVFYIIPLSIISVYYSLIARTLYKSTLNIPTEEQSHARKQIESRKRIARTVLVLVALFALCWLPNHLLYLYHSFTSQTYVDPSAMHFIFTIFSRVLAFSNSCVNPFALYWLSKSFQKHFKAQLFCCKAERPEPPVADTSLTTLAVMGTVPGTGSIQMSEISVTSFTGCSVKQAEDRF
Details: BRS-3 over GRP-R and NMB-R; description taken from literature

| selectivity as BRS-3 agonist | Substance |
| --- | --- |
| selective BRS-3 agonists | [D-Tyr^6,(R)-Apa^11,Phe^13,Nle^14]Bombesin(6-14) [Compound 28] |
| selective BRS-3 agonists | [D-Tyr^6,(R)-Apa^11-4Cl,Phe^13,Nle^14]Bombesin(6-14) [Compound 30] |
| selective BRS-3 agonists | [D-Tyr^6,(S)-Apa^11,Phe^13,Nle^14]Bombesin(6-14) [Compound 29] |
